Values of other authors, collected in article PMC4610673.

The chains behind the UniProt entries cited, without tags or fusion partners. Residues count along the entry.
UniProt Q71F23, whole entry, looked up, tested part not stated: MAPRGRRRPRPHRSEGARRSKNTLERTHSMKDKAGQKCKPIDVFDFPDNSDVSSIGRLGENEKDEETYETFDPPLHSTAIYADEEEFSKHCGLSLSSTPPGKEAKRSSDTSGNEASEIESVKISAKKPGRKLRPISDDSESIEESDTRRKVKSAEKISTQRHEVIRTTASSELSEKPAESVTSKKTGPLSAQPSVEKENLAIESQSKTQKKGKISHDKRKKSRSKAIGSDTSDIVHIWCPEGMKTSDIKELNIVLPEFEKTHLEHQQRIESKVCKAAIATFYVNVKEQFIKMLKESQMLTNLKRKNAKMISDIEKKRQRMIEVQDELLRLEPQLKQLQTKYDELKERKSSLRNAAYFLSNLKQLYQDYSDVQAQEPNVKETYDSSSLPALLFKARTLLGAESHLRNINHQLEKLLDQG
UniProt P53350, 371-603: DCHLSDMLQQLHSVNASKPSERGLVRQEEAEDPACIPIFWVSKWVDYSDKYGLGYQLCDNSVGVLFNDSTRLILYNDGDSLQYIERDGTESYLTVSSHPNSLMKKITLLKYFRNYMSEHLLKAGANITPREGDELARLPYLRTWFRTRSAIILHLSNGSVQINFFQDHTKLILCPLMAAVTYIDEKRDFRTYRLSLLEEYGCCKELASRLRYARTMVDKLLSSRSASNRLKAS

Molecular target: PBIP1 phosphopeptide PLHSpT (Homo sapiens) (UniProt Q71F23)

Kd: 450 nM
Substance: Plk1 PBD (from UniProt P53350)
